Measured values from patent US4752614A, “Pharmaceutical compositions of tellerium and selenium compounds for the induction of in vivo and in vitro production of cytokines” (Bar-Ilan University, priority 1987, dated 1988).

Tested on: IL-2 receptors
Assay: Induction of IL-2 receptors of human mononuclear cells, proliferation with recombinant IL-2 (Example 18)
Assay type: cell-based
Details: Test B, control (b), 1.5 × 10^-6 units
Procedure: Human MNC were brought to a concentration of 10^6 cells/ml. RPMI+10% FCS. Aliquots of 0.2 ml. were placed in duplicate wells of microdishes and plates were incubated at 37° C. for 24 hrs. […] Plates were further incubated for 48 hrs. and labelled with 3H thymidine 24 hrs. before harvesting.
The proliferation was measured by ^3 HT uptake as described by Gillis et al, J. Immunol. […] The results are expressed in counts per minute.

## recombinant IL2 (human) Biogen: Cell plus recombinant IL2 (human) Biogen 1.5 × 10^-6 units
  proliferation (3HT uptake): 6858 counts per minute
